{"sequences": {"note": "By UniProt entry, the sequences of proteins in these tests, tags left out.", "UniProt Q9Y4P1, whole entry": "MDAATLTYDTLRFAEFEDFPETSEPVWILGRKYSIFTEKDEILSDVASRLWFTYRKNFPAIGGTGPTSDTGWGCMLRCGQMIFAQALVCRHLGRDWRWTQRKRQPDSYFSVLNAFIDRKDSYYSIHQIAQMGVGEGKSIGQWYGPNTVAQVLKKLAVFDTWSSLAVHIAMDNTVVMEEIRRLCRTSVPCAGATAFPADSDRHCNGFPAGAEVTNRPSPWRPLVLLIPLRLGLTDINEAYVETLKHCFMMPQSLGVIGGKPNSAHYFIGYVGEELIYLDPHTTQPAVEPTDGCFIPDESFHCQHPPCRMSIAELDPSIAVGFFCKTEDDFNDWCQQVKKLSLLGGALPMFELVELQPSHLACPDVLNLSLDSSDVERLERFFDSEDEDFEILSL"}, "source": "PubChem BioAssay AID504462", "about": "(Sanford-Burnham Center for Chemical Genomics, 2011)", "note": "This is a selection; strong and weak results do not stand in their true shares. Some of these compounds have results that are not shown, active ones among them. Calls of active or inactive are those of the source. Rule as the data show it: active = inhibition above about 40%; inactive = the rest.", "data": [{"target": "Cysteine protease ATG4B (Homo sapiens) (UniProt Q9Y4P1)", "assay": "ATG4B protease inhibitors, primary screen, biochemical, fluorescence, uHTS (AID 504462)", "conditions": "ATG4B cleavage of LC3-PLA2, NBD-HPC fluorescence, 1 h; at 8.33 µM; hits give high values", "values": [{"smiles": "O=C(OC1CN2CCC1CC2)C(CO)(c1ccccc1)c1ccccc1", "note": "(stereo not given)", "inhibition": "inactive: -2.3%"}, {"smiles": "CN(C)c1cccc(C(=O)NCC2(N(C)C)CCCCC2)c1", "inhibition": "inactive: -0.47%"}, {"smiles": "O=C(OCCN1CCCC1)C(O)(c1ccccc1)c1ccccc1", "inhibition": "inactive: -11.7%"}, {"smiles": "CC(C)Oc1ccc(C(=O)NCC2(N(C)C)CCCCC2)cc1", "inhibition": "inactive: 3.6%"}, {"smiles": "COc1ccc(Br)c(C(=O)NCC2(N3CCCCC3)CCCCC2)c1", "inhibition": "inactive: -3.78%"}, {"smiles": "COc1cc(C(=O)NCC2(N(C)C)CCCCC2)c([N+](=O)[O-])cc1OC", "inhibition": "inactive: -1.19%"}, {"smiles": "CN(C)C1(CNC(=O)c2ccc(Br)cc2)CCCCC1", "inhibition": "inactive: -8.46%"}, {"smiles": "O=C(NCC1(N2CCCCC2)CCCCC1)c1cccc(Cl)c1", "inhibition": "inactive: -0.51%"}, {"smiles": "COc1ccc(Cl)cc1C(=O)NCC1(N(C)C)CCCCC1", "inhibition": "inactive: 0.76%"}, {"smiles": "COc1cccc(C(=O)NCC2(N3CCCCC3)CCCCC2)c1", "inhibition": "inactive: -7.52%"}, {"smiles": "CN(C)c1ccc(C(=O)NCC2(N(C)C)CCCCC2)cc1", "inhibition": "inactive: -2.39%"}, {"smiles": "CN(C)C1CCCC1OC(=O)C(O)(c1ccccc1)c1ccccc1", "note": "(stereo not given)", "inhibition": "inactive: 4.67%"}, {"smiles": "Cc1ccccc1C(=O)NCC1(N2CCCCC2)CCCCC1", "inhibition": "inactive: -8.54%"}, {"smiles": "O=C(NCC1(N2CCCCC2)CCCCC1)c1cccc(Br)c1", "inhibition": "inactive: -11.8%"}, {"smiles": "CCN1CCCC(OC(=O)C2(O)c3ccccc3C=Cc3ccccc32)C1", "note": "(stereo not given)", "inhibition": "inactive: -5.83%"}, {"smiles": "Cc1cc(C(=O)NCC2(N3CCCCC3)CCCCC2)ccc1[N+](=O)[O-]", "inhibition": "inactive: -19.3%"}, {"smiles": "COc1ccc(C(=O)NCC2(N(C)C)CCCCC2)cc1", "inhibition": "inactive: -3.32%"}, {"smiles": "O=C(NCC1(N2CCCCC2)CCCCC1)c1cc(F)c(F)cc1Cl", "inhibition": "inactive: 4.23%"}, {"smiles": "C=CCN1CCN(CCOC(=O)C(O)(c2ccccc2)c2ccccc2)CC1", "inhibition": "inactive: 0.75%"}, {"smiles": "CN1[C@@H]2CC[C@H]1CC(OC(=O)C(O)(c1ccccc1)c1ccccc1)C2", "note": "(stereo not given in full)", "inhibition": "inactive: 0.3%"}, {"smiles": "O=C(NCC1(N2CCCCC2)CCCCC1)c1cc([N+](=O)[O-])ccc1Cl", "inhibition": "inactive: 6.83%"}, {"smiles": "Cc1ccc(C(=O)NCC2(N3CCCCC3)CCCCC2)cc1", "inhibition": "inactive: 1.83%"}, {"smiles": "CC(C)N1C(=O)CC2(CCN(CCOC(=O)C(O)(c3ccccc3)c3ccccc3)CC2)C1=O", "inhibition": "inactive: -1.44%"}, {"smiles": "COc1cc(SC)ccc1C(=O)NCC1(N(C)C)CCCCC1", "inhibition": "inactive: -4.72%"}, {"smiles": "CCN(CC)CC(C)C(C)OC(=O)C(O)(c1ccccc1)c1ccccc1", "note": "(stereo not given)", "inhibition": "inactive: -7.3%"}]}]}
